From PubChem BioAssay AID504414 (Broad Institute, 2011)
The entries are a selection whose mix differs from that of the whole data set. Activity calls are given as the source filed them.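 Rule for the calls: active = highest replicate inhibition of at least 40%; inactive = the rest.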

These molecules were tested against Golgi-associated PDZ and coiled-coil motif-containing protein (Homo sapiens) (UniProt Q9HD26) (assay: disruption of CAL PDZ-reporter peptide interaction – biochemical, fluorescence polarization, Cer-tagged CAL PDZ, HTS, primary screen (AID 504414;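 note: plate controls were DMSO neutral control wells for no effect and unlabeled competitor peptide control wells for full effect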)). Conditions: purified CAL PDZ, TMR-peptide fluorescence polarization, 1 h; at 20 µM; active compounds read high.

Compound | inhibition
O=C(NCC1(N2CCCCC2)CCCCC1)c1ccc(OC(F)F)cc1 | inactive: -1.47%
O=C(NCC1(N2CCCCC2)CCCCC1)c1cccc([N+](=O)[O-])c1 | inactive: -1.88%
CSc1ccc(C(=O)NCC2(N3CCOCC3)CCCCC2)cc1 | inactive: -3.66%
CCN1CCC(Nc2ccc(Cl)cc2)CC1 | inactive: -0.202%
N#CC1(Nc2ccccc2)CCN(CCc2ccccc2)CC1 | inactive: -0.525%
O=C(NCC1(N2CCCCC2)CCCCC1)c1cccc(C(F)(F)F)c1 | inactive: -2.38%
CN1CCN(CCOC(=O)C(O)(c2ccccc2)c2ccccc2)CC1 | inactive: 0.442%
COc1ccc(NC2CCN(C(=O)OC(C)(C)C)CC2)cc1 | inactive: -0.984%
CC(C)c1ccc(C(=O)NCC2(N3CCOCC3)CCCCC2)cc1 | inactive: -1.92%
COc1cc(C(=O)NCC2(N3CCCCC3)CCCCC2)ccc1OC(F)F | inactive: -0.604%
O=C(NCC1(N2CCOCC2)CCCCC1)c1cc(=O)[nH]c2ccccc12 | inactive: -3.8%
COc1ccc(CN(CCCl)CCCl)cc1Cl | inactive: -1.28%
CN(C)c1cccc(C(=O)NCC2(N3CCCCC3)CCCCC2)c1 | inactive: -0.835%
CC(C)c1ccc(NC2CCN(C(=O)OC(C)(C)C)CC2)cc1 | inactive: -2.01%
COc1cc(OC)c(C(=O)NCC2(N(C)C)CCCCC2)cc1OC | inactive: -0.777%
O=C(NCC1(N2CCOCC2)CCCCC1)c1cc(F)c(F)cc1Cl | inactive: 0.855%
O=C(NCC1(N2CCCCC2)CCCCC1)c1cncc(Br)c1 | inactive: 0.47%
CN1CCC(Nc2cccc(F)c2)CC1 | inactive: -2.49%
O=C(NCC1(N2CCCCC2)CCCCC1)c1ccc(=O)[nH]c1 | inactive: -0.0615%
O=C(NCC1(N2CCCCC2)CCCCC1)c1cccs1 | inactive: -2.23%
COc1ccc(C(=O)NCC2(N3CCCCC3)CCCCC2)cc1 | inactive: -1.62%
COc1ccc(C(=O)NCC2(N3CCCCC3)CCCCC2)c(OC)c1OC | inactive: 0.295%
CC(C)(C)OC(=O)N1CCC(N(C(=O)c2ccccc2)c2ccc(F)cc2)CC1 | inactive: 0.97%
CSc1ccccc1C(=O)NCC1(N2CCCCC2)CCCCC1 | inactive: -0.00409%

Compound | inhibition
Cc1cccc(NC2(C#N)CCN(Cc3ccccc3)CC2)c1 | inactive: -0.126%
O=C(NCC1(N2CCOCC2)CCCCC1)c1cc2ccccc2o1 | inactive: -0.971%
O=C(NCC1(N2CCCCC2)CCCCC1)c1ccc(Cl)nc1 | inactive: -2.87%
Cc1cc(C)cc(N(C(=O)c2ccccc2)C2CCN(C(=O)OC(C)(C)C)CC2)c1 | inactive: -0.158%
CCOC(=O)N1CCC(Nc2ccc(OC)cc2)CC1 | inactive: -2.3%
O=C(NCC1(N2CCCCC2)CCCCC1)c1ccc(Cl)s1 | inactive: -0.187%
N#CC1(Nc2ccccc2)CCN(Cc2ccccc2)CC1 | inactive: -0.887%
COc1ccc(Cl)cc1C(=O)NCC1(N2CCOCC2)CCCCC1 | inactive: -0.244%
CCOc1ccc(C)cc1CN(CCCl)CCCl | inactive: 0.0396%
O=C1CCN(Cc2ccccc2)CC1 | inactive: -6.26%
O=C(NCC1(N2CCCCC2)CCCCC1)c1ccc(F)cc1 | inactive: -1.54%
O=P1(N(CCCl)CCCl)SCCCS1 | inactive: -0.0619%
CCCCOc1ccc(C(=O)NCC2(N3CCOCC3)CCCCC2)cc1 | inactive: -3.48%
COc1ccc(NC2CCN(CCc3ccccc3)CC2)c(OC)c1 | inactive: 0.101%
CCOC(=O)N1CCC(Nc2ccc(F)cc2)CC1 | inactive: 0.726%
COc1cc(C(=O)NCC2(N(C)C)CCCCC2)ccc1OC(F)F | inactive: -1.15%
CCOC(=O)N1CCC(Nc2cccc(C)c2)CC1 | inactive: -0.27%
COc1cc(OC)cc(C(=O)NCC2(N3CCCCC3)CCCCC2)c1 | inactive: -2.37%
CC(=O)N(c1ccccc1)C1CCNCC1 | inactive: -0.443%
Cc1ccc(NC2(C#N)CCN(Cc3ccccc3)CC2)cc1 | inactive: -0.151%
Cc1ccc(C(=O)NCC2(N3CCCCC3)CCCCC2)o1 | inactive: -1.61%
Fc1ccccc1NC1CCN(Cc2ccccc2)CC1 | inactive: -0.715%
Cc1ccccc1NC1(C#N)CCN(Cc2ccccc2)CC1 | inactive: -0.78%
CCN1CCC(Nc2cccc(F)c2)CC1 | inactive: -0.582%

Compound | inhibition
O=C(NCC1(N2CCCCC2)CCCCC1)c1ccco1 | inactive: 0.486%
Cn1c(=O)[nH]cc(N(CCCl)CCCl)c1=O | inactive: 0.437%
CN(C)c1ccc(C(=O)NCC2(N3CCCCC3)CCCCC2)cc1 | inactive: -2.39%
CCOc1ncccc1C(=O)NCC1(N2CCOCC2)CCCCC1 | inactive: -0.613%
CN1CCC(Nc2ccc(F)c(Cl)c2)CC1 | inactive: -0.391%
CCCOc1ccc(C(=O)NCC2(N(C)C)CCCCC2)cc1 | inactive: 0.462%
CC(C)(C)OC(=O)N1CCC(Nc2ccccc2)CC1 | inactive: -1.69%
O=C(O)C1(Nc2ccccc2)CCN(Cc2ccccc2)CC1 | inactive: 0.772%
CCC(CO)(C(=O)OC1CN2CCC1CC2)c1ccccc1 (stereo not given) | inactive: -0.786%
COc1cc(OC)cc(C(=O)NCC2(N3CCOCC3)CCCCC2)c1 | inactive: -0.302%
CN1CCC(Nc2ccc(Cl)cc2)CC1 | inactive: 11.7%
O=C(NCC1(N2CCOCC2)CCCCC1)c1cc(Br)ccc1Cl | inactive: 0.463%
COc1cc(C(=O)NCC2(N3CCOCC3)CCCCC2)cc(OC)c1C | inactive: 0.28%
COc1ccc(C(=O)NCC2(N3CCOCC3)CCCCC2)cc1OC | inactive: -0.344%
N/C(=N\O)c1c(N)no[n+]1[O-] | inactive: -0.531%
CCOC(=O)N1CCC(Nc2ccc(C)cc2)CC1 | inactive: 0.688%
O=C(OC1CN2CCC1CC2)C1c2ccccc2C=Cc2ccccc21 (stereo not given) | inactive: -0.344%
CC(C)(C)OC(=O)N1CCC(N(C(=O)c2ccccc2)c2ccc(Cl)cc2)CC1 | inactive: -2.02%
N#Cc1ccc(C(=O)NCC2(N3CCCCC3)CCCCC2)cc1 | inactive: -1.43%
c1ccc(CN2CCC(Nc3ccccc3)CC2)cc1 | inactive: -1.29%
Cc1cc(N(CCCl)CCCl)ccc1C=O | inactive: -0.371%
CN(C)C1(CNC(=O)c2cccc(C#N)c2)CCCCC1 | inactive: 0.764%
